Results published in US20140100156A1 (SANOFI, priority 2012, published 2014).

The chains behind the UniProt entries cited, without tags or fusion partners. Residues count along the entry.
UniProt P47871, 26-477: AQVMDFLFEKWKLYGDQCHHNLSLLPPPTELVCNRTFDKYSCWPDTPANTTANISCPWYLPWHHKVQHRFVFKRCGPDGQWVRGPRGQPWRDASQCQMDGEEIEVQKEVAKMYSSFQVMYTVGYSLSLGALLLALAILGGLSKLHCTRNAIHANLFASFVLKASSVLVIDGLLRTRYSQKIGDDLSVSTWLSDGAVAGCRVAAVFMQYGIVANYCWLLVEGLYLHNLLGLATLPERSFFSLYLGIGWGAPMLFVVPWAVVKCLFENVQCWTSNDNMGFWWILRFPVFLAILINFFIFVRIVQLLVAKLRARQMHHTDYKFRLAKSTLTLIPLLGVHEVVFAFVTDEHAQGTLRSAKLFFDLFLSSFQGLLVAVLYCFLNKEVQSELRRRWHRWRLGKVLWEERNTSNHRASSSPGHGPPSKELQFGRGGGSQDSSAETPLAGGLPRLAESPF
UniProt P43220, 24-463: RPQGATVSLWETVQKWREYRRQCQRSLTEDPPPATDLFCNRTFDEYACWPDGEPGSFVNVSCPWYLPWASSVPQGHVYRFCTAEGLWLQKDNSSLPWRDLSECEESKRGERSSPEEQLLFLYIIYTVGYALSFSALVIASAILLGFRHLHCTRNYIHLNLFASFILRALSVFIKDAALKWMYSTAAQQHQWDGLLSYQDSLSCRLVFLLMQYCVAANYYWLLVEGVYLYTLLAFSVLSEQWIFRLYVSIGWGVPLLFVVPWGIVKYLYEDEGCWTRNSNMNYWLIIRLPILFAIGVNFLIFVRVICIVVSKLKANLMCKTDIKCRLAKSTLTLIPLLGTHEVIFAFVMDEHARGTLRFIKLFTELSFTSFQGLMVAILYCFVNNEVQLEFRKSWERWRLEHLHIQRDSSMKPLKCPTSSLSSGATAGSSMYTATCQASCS

Key:
human glucagon receptor = biological target: T1, human glucagon receptor (Homo sapiens, UniProt P47871); test: cAMP response (HTRF) of HEK-293 cells stably expressing human glucagon receptor; format: cell-based; conditions: Table 5; cAMP, HEK-293; read-out: EC50 hGlucagon-R
T1 construct: expressed in transfected cells; host or cells: HEK-293

human GLP-1 receptor = biological target: T2, human GLP-1 receptor (Homo sapiens, UniProt P43220); test: cAMP response (HTRF) of HEK-293 cells stably expressing human GLP-1 receptor; format: cell-based; conditions: Table 5; cAMP, HEK-293; read-out: EC50 hGLP-1R
T2 construct: expressed in transfected cells; host or cells: HEK-293

Row | Compound | EC50 (human glucagon receptor) [pM] | EC50 (human GLP-1 receptor) [pM]
1 | CCCCCCCCCCCCCCCC(=O)N[C@@H](CCC(=O)NCCCC[C@H](NC(=O)[C@H](CCC(N)=O)NC(=O)[C@H](CCCCN)NC(=O)[C@H](CO)NC(=O)[C@H](CC(C)C)NC(=O)[C@H](CC(=O)O)NC(=O)[C@H](CO)NC(=O)[C@@H](NC(=O)[C@H](Cc1ccccc1)NC(=O)[C@@H](NC(=O)CNC(=O)[C@H](Cc1c[nH]cn1)NC(=O)[C@@H](CO)NC(=O)[C@@H](N)Cc1c[nH]cn1)[C@@H](C)O)[C@@H](C)O)C(=O)N[C@@H](CCC(=O)O)C(=O)N[C@@H](CO)C(=O)N[C@@H](CCCNC(=N)N)C(=O)N[C@@H](CCCNC(=N)N)C(=O)N[C@@H](C)C(=O)N[C@@H](CCC(N)=O)C(=O)N[C@@H](CC(=O)O)C(=O)N[C@@H](Cc1ccccc1)C(=O)N[C@H](C(=O)N[C@@H](CCC(=O)O)C(=O)N[C@@H](Cc1c[nH]c2ccccc12)C(=O)N[C@@H](CC(C)C)C(=O)N[C@@H](CCCCN)C(=O)N[C@@H](C)C(=O)NCC(=O)NCC(=O)N1CCC[C@H]1C(=O)N[C@@H](CO)C(=O)N[C@@H](CO)C(=O)NCC(=O)N[C@@H](C)C(=O)N1CCC[C@H]1C(=O)N1CCC[C@H]1C(=O)N1CCC[C@H]1C(=O)N[C@@H](CO)C(N)=O)[C@@H](C)CC)C(=O)O [compound 73] | 1.7 | 4.1
2 | CCCCCCCCCCCCCCCC(=O)N[C@@H](CCC(=O)NCCCC[C@H](NC(=O)[C@H](CCC(N)=O)NC(=O)[C@H](CCCCN)NC(=O)[C@H](CO)NC(=O)[C@H](CC(C)C)NC(=O)[C@H](CC(=O)O)NC(=O)[C@H](CO)NC(=O)[C@@H](NC(=O)[C@H](Cc1ccccc1)NC(=O)[C@@H](NC(=O)CNC(=O)[C@H](CCC(N)=O)NC(=O)[C@@H](CO)NC(=O)[C@@H](N)Cc1c[nH]cn1)[C@@H](C)O)[C@@H](C)O)C(=O)N[C@@H](CC(=O)O)C(=O)N[C@@H](CO)C(=O)N[C@@H](CCCNC(=N)N)C(=O)N[C@@H](CCCNC(=N)N)C(=O)N[C@@H](C)C(=O)N[C@@H](CCC(N)=O)C(=O)N[C@@H](CC(=O)O)C(=O)N[C@@H](Cc1ccccc1)C(=O)N[C@H](C(=O)N[C@@H](CCC(=O)O)C(=O)N[C@@H](Cc1c[nH]c2ccccc12)C(=O)N[C@@H](CC(C)C)C(=O)N[C@@H](CCCCN)C(=O)N[C@@H](C)C(=O)NCC(=O)NCC(=O)N1CCC[C@H]1C(=O)N[C@@H](CO)C(=O)N[C@@H](CO)C(=O)NCC(=O)N[C@@H](C)C(=O)N1CCC[C@H]1C(=O)N1CCC[C@H]1C(=O)N1CCC[C@H]1C(=O)N[C@@H](CO)C(N)=O)[C@@H](C)CC)C(=O)O [compound 74] | 1.3 | 4.2
3 | CCCCCCCCCCCCCCCC(=O)N[C@@H](CCC(=O)NCCCC[C@H](NC(=O)[C@H](CCC(N)=O)NC(=O)[C@H](CCCCN)NC(=O)[C@H](CO)NC(=O)[C@H](CC(C)C)NC(=O)[C@H](CC(=O)O)NC(=O)[C@H](CO)NC(=O)[C@@H](NC(=O)[C@H](Cc1ccccc1)NC(=O)[C@@H](NC(=O)CNC(=O)[C@H](CCC(N)=O)NC(=O)[C@@H](CO)NC(=O)[C@@H](N)Cc1c[nH]cn1)[C@@H](C)O)[C@@H](C)O)C(=O)N[C@@H](CCC(=O)O)C(=O)N[C@@H](CO)C(=O)N[C@@H](CCCNC(=N)N)C(=O)N[C@@H](CCCNC(=N)N)C(=O)N[C@@H](C)C(=O)NC(C)(C)C(=O)N[C@@H](CC(=O)O)C(=O)N[C@@H](Cc1ccccc1)C(=O)N[C@H](C(=O)N[C@@H](CCC(=O)O)C(=O)N[C@@H](Cc1c[nH]c2ccccc12)C(=O)N[C@@H](CC(C)C)C(=O)N[C@@H](CCCCN)C(=O)N[C@@H](C)C(=O)NCC(=O)NCC(=O)N1CCC[C@H]1C(=O)N[C@@H](CO)C(=O)N[C@@H](CO)C(=O)NCC(=O)N[C@@H](C)C(=O)N1CCC[C@H]1C(=O)N1CCC[C@H]1C(=O)N1CCC[C@H]1C(=O)N[C@@H](CO)C(N)=O)[C@@H](C)CC)C(=O)O [compound 75] | 12.5 | 11.1
4 | CCCCCCCCCCCCCCCC(=O)NCCCC[C@H](NC(=O)[C@H](CCC(N)=O)NC(=O)[C@H](CCCCN)NC(=O)[C@H](CO)NC(=O)[C@H](CC(C)C)NC(=O)[C@H](CC(=O)O)NC(=O)[C@H](CO)NC(=O)[C@@H](NC(=O)[C@H](Cc1ccccc1)NC(=O)[C@@H](NC(=O)CNC(=O)[C@H](CCC(N)=O)NC(=O)[C@@H](CO)NC(=O)[C@@H](N)Cc1c[nH]cn1)[C@@H](C)O)[C@@H](C)O)C(=O)N[C@@H](CCC(=O)O)C(=O)N[C@@H](CO)C(=O)N[C@@H](CCCNC(=N)N)C(=O)N[C@@H](CCCNC(=N)N)C(=O)N[C@@H](C)C(=O)NC(C)(C)C(=O)N[C@@H](CC(=O)O)C(=O)N[C@@H](Cc1ccccc1)C(=O)N[C@H](C(=O)N[C@@H](CCC(=O)O)C(=O)N[C@@H](Cc1c[nH]c2ccccc12)C(=O)N[C@@H](CC(C)C)C(=O)N[C@@H](CCCCN)C(=O)N[C@@H](C)C(=O)NCC(=O)NCC(=O)N1CCC[C@H]1C(=O)N[C@@H](CO)C(=O)N[C@@H](CO)C(=O)NCC(=O)N[C@@H](C)C(=O)N1CCC[C@H]1C(=O)N1CCC[C@H]1C(=O)N1CCC[C@H]1C(=O)N[C@@H](CO)C(N)=O)[C@@H](C)CC [compound 76] | 162 | 44.9
5 | CCCCCCCCCCCCCCCC(=O)N[C@@H](CCC(=O)NCCCC[C@H](NC(=O)[C@H](CCC(N)=O)NC(=O)[C@H](CCCCN)NC(=O)[C@H](CO)NC(=O)[C@H](CC(C)C)NC(=O)[C@H](CC(=O)O)NC(=O)[C@H](CO)NC(=O)[C@@H](NC(=O)[C@H](Cc1ccccc1)NC(=O)[C@@H](NC(=O)CNC(=O)[C@H](CCC(N)=O)NC(=O)C(C)(C)NC(=O)[C@@H](N)Cc1c[nH]cn1)[C@@H](C)O)[C@@H](C)O)C(=O)N[C@@H](CCC(=O)O)C(=O)N[C@@H](CO)C(=O)N[C@@H](CCCNC(=N)N)C(=O)N[C@@H](CCCNC(=N)N)C(=O)N[C@@H](C)C(=O)N[C@@H](CCC(N)=O)C(=O)N[C@@H](CC(=O)O)C(=O)N[C@@H](Cc1ccccc1)C(=O)N[C@H](C(=O)N[C@@H](CCC(=O)O)C(=O)N[C@@H](Cc1c[nH]c2ccccc12)C(=O)N[C@@H](CC(C)C)C(=O)N[C@@H](CCCCN)C(=O)N[C@@H](C)C(=O)NCC(=O)NCC(=O)N1CCC[C@H]1C(=O)N[C@@H](CO)C(=O)N[C@@H](CO)C(=O)NCC(=O)N[C@@H](C)C(=O)N1CCC[C@H]1C(=O)N1CCC[C@H]1C(=O)N1CCC[C@H]1C(=O)N[C@@H](CO)C(N)=O)[C@@H](C)CC)C(=O)O [compound 77] | 11.9 | 4.3
6 | CCCCCCCCCCCCCCCC(=O)N[C@@H](CCC(=O)NCCCC[C@H](NC(=O)[C@H](CCC(N)=O)NC(=O)[C@H](CCCCN)NC(=O)[C@H](CO)NC(=O)[C@H](CC(C)C)NC(=O)[C@H](CC(=O)O)NC(=O)[C@H](CO)NC(=O)[C@@H](NC(=O)[C@H](Cc1ccccc1)NC(=O)[C@@H](NC(=O)CNC(=O)[C@H](CCC(N)=O)NC(=O)[C@@H](CO)NC(=O)[C@@H](N)Cc1c[nH]cn1)[C@@H](C)O)[C@@H](C)O)C(=O)N[C@@H](CC(=O)O)C(=O)N[C@@H](CO)C(=O)N[C@@H](CCCNC(=N)N)C(=O)N[C@@H](CCCNC(=N)N)C(=O)N[C@@H](C)C(=O)N[C@@H](CCC(N)=O)C(=O)N[C@@H](CC(=O)O)C(=O)N[C@@H](Cc1ccccc1)C(=O)N[C@H](C(=O)N[C@@H](CCC(=O)O)C(=O)N[C@@H](Cc1c[nH]c2ccccc12)C(=O)N[C@@H](CC(C)C)C(=O)N[C@@H](CCCCN)C(=O)NC(C)(C)C(=O)NCC(=O)NCC(=O)N1CCC[C@H]1C(=O)N[C@@H](CO)C(=O)N[C@@H](CO)C(=O)NCC(=O)N[C@@H](C)C(=O)N1CCC[C@H]1C(=O)N1CCC[C@H]1C(=O)N1CCC[C@H]1C(=O)N[C@@H](CO)C(N)=O)[C@@H](C)CC)C(=O)O [compound 78] | 1.6 | 17.8
7 | CCCCCCCCCCCCCCCC(=O)N[C@@H](CCC(=O)NCCCC[C@H](NC(=O)[C@H](CCC(N)=O)NC(=O)[C@H](CCCCN)NC(=O)[C@H](CO)NC(=O)[C@H](CC(C)C)NC(=O)[C@H](CC(=O)O)NC(=O)[C@H](CO)NC(=O)[C@@H](NC(=O)[C@H](Cc1ccccc1)NC(=O)[C@@H](NC(=O)CNC(=O)[C@H](CCC(N)=O)NC(=O)[C@@H](CO)NC(=O)[C@@H](N)Cc1c[nH]cn1)[C@@H](C)O)[C@@H](C)O)C(=O)N[C@@H](CCC(=O)O)C(=O)N[C@@H](CO)C(=O)N[C@@H](CCCNC(=N)N)C(=O)N[C@@H](CCCNC(=N)N)C(=O)N[C@@H](C)C(=O)N[C@@H](CCC(N)=O)C(=O)N[C@@H](CC(=O)O)C(=O)N[C@@H](Cc1ccccc1)C(=O)N[C@H](C(=O)N[C@@H](CCC(=O)O)C(=O)N[C@@H](Cc1c[nH]c2ccccc12)C(=O)N[C@@H](CC(C)C)C(=O)N[C@@H](CCCCN)C(=O)NC(C)(C)C(=O)NCC(=O)NCC(=O)N1CCC[C@H]1C(=O)N[C@@H](CO)C(=O)N[C@@H](CO)C(=O)NCC(=O)N[C@@H](C)C(=O)N1CCC[C@H]1C(=O)N1CCC[C@H]1C(=O)N1CCC[C@H]1C(=O)N[C@@H](CO)C(N)=O)[C@@H](C)CC)C(=O)O [compound 79] | 7.5 | 23.3
8 | CCCCCCCCCCCCCCCC(=O)N[C@@H](CCC(=O)NCCCC[C@H](NC(=O)[C@H](CCC(N)=O)NC(=O)[C@H](CCCCN)NC(=O)[C@H](CO)NC(=O)[C@H](CC(C)C)NC(=O)[C@H](CC(=O)O)NC(=O)[C@H](CO)NC(=O)[C@@H](NC(=O)[C@H](Cc1ccccc1)NC(=O)[C@@H](NC(=O)CNC(=O)[C@H](CCC(N)=O)NC(=O)[C@@H](CO)NC(=O)[C@@H](N)Cc1c[nH]cn1)[C@@H](C)O)[C@@H](C)O)C(=O)N[C@@H](CC(=O)O)C(=O)N[C@@H](CO)C(=O)N[C@@H](CCCNC(=N)N)C(=O)N[C@@H](CCCNC(=N)N)C(=O)N[C@@H](C)C(=O)N[C@@H](CCC(N)=O)C(=O)N[C@@H](CC(=O)O)C(=O)N[C@@H](Cc1ccccc1)C(=O)N[C@H](C(=O)N[C@@H](CCC(=O)O)C(=O)N[C@@H](Cc1c[nH]c2ccccc12)C(=O)N[C@@H](CC(C)C)C(=O)N[C@@H](CCCCN)C(=O)N[C@@H](CC(=O)O)C(=O)NCC(=O)NCC(=O)N1CCC[C@H]1C(=O)N[C@@H](CO)C(=O)N[C@@H](CO)C(=O)NCC(=O)N[C@@H](C)C(=O)N1CCC[C@H]1C(=O)N1CCC[C@H]1C(=O)N1CCC[C@H]1C(=O)N[C@@H](CO)C(N)=O)[C@@H](C)CC)C(=O)O [compound 80] | 1 | 5.8
